Results: PubChem BioAssay AID1347071 (National Center for Advancing Translational Sciences (NCATS), 2019)
This is a selection; strong and weak results do not stand in their true shares. Active and inactive are the calls of the source. Calls follow the shape of the dose curve; as a rule, active = well fitted activation curve with a large enough effect; inconclusive = small, poorly fitted or top-dose-only effect; inactive = no such curve, though single readings can be large or run the other way.

experiment: qHTS for compounds that reverse cellular toxicity of Amyloid beta (A-beta) peptide in yeast: Primary Screen; conditions: yeast expressing A-beta42, growth rescue, OD600, 48 h, 0% DMSO, 100% iron-clioquinol control; at 46.1 µM (top of the series); also: nearly all actives have a fitted effect of over 55% in size
Excerpt: The A-beta peptide is produced by the processing of the amyloid precursor protein (APP) by two proteases, beta and gamma secretases. […] A-beta42 is regarded as the most amyloidogenic form due to its hydrophobicity; however, precisely how A-beta42 induces neurotoxicity is unclear. To understand further this biology and its potential therapeutic implications for human neurodegenerative disease, a quantitative high-throughput screen for compounds that reverse the cellular toxicity of the A-beta peptide was developed. A yeast based screen was used because it recapitulates the salient feature of protein mis-folding disorder accurately. This cell-based phenotypic screen provides a significant, unbiased advantage by letting the compounds and models inform us which proteins or pathways are most relevant. The ideal chemical candidates would therefore have activity in both our primary yeast and secondary neuronal toxicity assays, as well as in mouse models. They will be valuable tools for dissecting diverse protein homeostasis pathologies and could potentially become the focus for future pre-clinical development. For this luminescence assay, inhibition of A-beta rescues the toxic effect in the yeast cell, resulting in increase of signals and the desired phenotype of "Activator". This screen is run against the Molecular Libraries Small Molecule Repository (MLSMR) and the NCGC Sytravon Library Collection.
NIH Chemical Genomics Center [NCGC]
NIH Molecular Libraries Probe Centers Network [MLPCN]
Assay Submitter (PI): Susan Lindquist, Whitehead Institute, Massachusetts Institute of Technology
[1] Vassar R,et al (1999). Beta-secretase cleavage of Alzheimer's amyloid precursor protein by the transmembrane aspartic protease BACE. Science. 286: 735-741.
[2] Yan R, et al (1999). Membrane-anchored aspartyl protease with Alzheimer's disease beta-secretase activity. Nature. 402: 533-536.
Two and a half microliter / well of yeast growth medium were dispensed in a 1536 assay plate. Compounds were pinned using the Kalypsys robotic system followed by addition of 2.5 uL / well yeast solution. The assay plates were incubated at 30 C. After 48 hr, the absorbance signal at 600 nm was obtained using the PerkinElmer ViewLux plate reader to assess yeast growth. The data was normalized to the positive control of an equimolar mixture of ferric chloride (FeCl3) and clioquinol and to the negative control DMSO.

SMILES	growth rescue
CS(=O)(=O)c1ccc(Cl)c(NC(=O)COC(=O)C(O)(c2ccccc2)c2ccccc2)c1	inactive: 3.52%
O=[As](O)(O)c1cccnc1	inactive: 2.9%
COc1cc(C(=O)NCC2(N3CCOCC3)CCCCC2)cc(Cl)c1OC(C)C	inactive: -2.1%
O=C(OC1CN2CCC1CC2)c1ccc(Cl)cc1 (centres undefined)	inactive: 14.3%
Cc1cccc(OCC(=O)OC2CN3CCC2CC3)c1 (centres undefined)	inactive: 7.65%
O=[As](O)(c1cccc(O)c1)c1cccc(O)c1	inactive: 15.2%
CCCOP(=S)(Nc1nc(N)cc(=O)[nH]1)OCCC	inactive: 9.89%
Cc1ccc(NCCc2c([N+](=O)[O-])cc([N+](=O)[O-])cc2[N+](=O)[O-])cc1	inactive: -35.2%
Nc1cccc2c([As](=O)(O)O)cccc12	inactive: 0.172%
CCOP(=O)(Nc1cccc2ccccc12)OCC	inactive: 34.2%
COc1cc(C2NCCC3(OCCO3)C2(C)C)cc(OC)c1OC (centres undefined)	inactive: -11%
CS(=O)(=O)c1cc([N+](=O)[O-])c2no[n+]([O-])c2c1	inactive: 1.12%
O=P(Nc1nccs1)(Oc1ccccc1)Oc1ccccc1	inactive: -1.5%
O=P(Nc1nccs1)(c1ccccc1)c1nc2ccccc2s1 (centres undefined)	inactive: -83.5%
CCOP1(=S)c2c(C)nn(CCC#N)c2N=C(c2ccccc2F)N1C (centres undefined)	inactive: -13.7%
Nc1ccccc1[As](=O)(O)c1ccccc1	inactive: -0.299%
O=C(O)COc1ccc([As](=O)(O)O)cc1[N+](=O)[O-]	inactive: -32.2%
NC(=O)Nc1ccc([As](=O)(O)O)cc1	inactive: 6.84%
CN(C(=O)Cc1ccc(Cl)c(Cl)c1)[C@H]1CC[C@@]2(CCCO2)C[C@@H]1N1CCCC1	inactive: -2.37%
O=[N+]([O-])c1ccc2c(c1)nnn2O	inactive: 0.712%
CN(C)C(=O)c1cc([N+](=O)[O-])cc2c1-c1c(cc([N+](=O)[O-])cc1[N+](=O)[O-])C2=O	inactive: -83.6%
CCOP1(=S)c2c(C)nn(CCC#N)c2N=C(c2ccc(F)cc2)N1C (centres undefined)	inactive: -21.9%

SMILES	growth rescue
CN(C(=O)Cc1ccccc1)[C@@H]1CC[C@]2(CCCO2)C[C@H]1N1CCCC1	inactive: 5.96%
N#CCCN(C(=O)COC(=O)C(O)(c1ccccc1)c1ccccc1)c1ccc(F)cc1	inactive: 7.42%
CC1CCC(C(C)C)C(OP(=O)(Nc2ccccn2)c2ccccc2)C1 (centres undefined)	inactive: 2.93%
Cc1ccc(C(=O)OC2CN3CCC2CC3)cc1 (centres undefined)	inactive: 11.1%
Cc1nn(-c2ccccc2)c2c1P(=O)(N1CCOCC1)N(C)C(c1ccccc1)=N2 (centres undefined)	inactive: -2.45%
CCCC1OP(=O)(Nc2ccccc2)OCC1CC (centres undefined)	inactive: 3.93%
O=C(/C=C/c1ccccc1)OC1CN2CCC1CC2 (centres undefined)	inactive: -11.9%
CN(C)C1(CNC(=O)c2ccc(S(C)(=O)=O)cc2)CCCCC1	inactive: 17%
O=P1(Nc2ncccn2)COc2ccccc2OC1	inactive: -7.95%
Cc1ccc(S(=O)(=O)N(CCCN)CCCc2c(C)nc(N)[nH]c2=O)cc1	inactive: -16.2%
O=[As](O)(c1cccs1)c1cccs1	inactive: 10.9%
O=P1(Nc2ccc(Br)cn2)COc2ccccc2OC1	inactive: 8.19%
NS(=O)(=O)c1cccc(NC(=O)COC(=O)C(O)(c2ccccc2)c2ccccc2)c1	inactive: -14.7%
Nc1cccc([As](=O)(O)c2ccccc2)c1	inactive: 13.4%
CCOP(=O)(Nc1ccc(C)cn1)OCC	inactive: -8.02%
CN(CCCl)Cc1cc(Cl)c(NC2=NCCN2)c(Cl)c1	inactive: 0%
CCOP(=O)(NC(=NC(C)c1ccccc1)NC(C)c1ccccc1)OCC (centres undefined)	inactive: 13.2%
O=P1(Nc2ccccn2)COc2ccccc2OC1	inactive: -13.9%
CCC1=CC2Cc3nc4ccc(Cl)cc4c(N)c3C(C1)C2 (centres undefined)	inactive: 1.78%
CC(C)(C)C(=O)NC(Sc1ncccn1)C(Cl)(Cl)Cl (centres undefined)	inactive: 10.1%
O=P1(N(CCCl)CCCl)NCCC(C(F)(F)F)O1 (centres undefined)	inactive: 4.85%
Clc1n[nH]nc1-c1nn[nH][15n]1	inactive: -0.784%

SMILES	growth rescue
COc1ccccc1CNC(=O)COC(=O)C(O)(c1ccccc1)c1ccccc1	inactive: 10.1%
CC1(CBr)Cn2c(nc3ccccc3c2=O)S1 (centres undefined)	inactive: 20%
CC(C)/C=N\N=C(\N)N[N+](=O)[O-]	inactive: -12.9%
CN(C(=O)Cc1ccc(Cl)c(Cl)c1)[C@@H]1CCCC[C@H]1N1CCCC1	inactive: -8.08%
COC(=O)C1(C)COP(=O)(N2CCCC2)OC1 (centres undefined)	inactive: -2.62%
COP1(=S)c2c(C)nn(CCC#N)c2N=C(c2ccc(F)cc2)N1C (centres undefined)	inactive: 9%
O=C(Nc1ccncc1[N+](=O)[O-])c1ccc([N+](=O)[O-])cc1[N+](=O)[O-]	inactive: 18.7%
O=C(COc1ccccc1)OC1CN2CCC1CC2 (centres undefined)	inactive: 6.52%
O=C(O)C(=O)c1ccc(N(CCCl)CCCl)cc1	inactive: 2.68%
CCOC(=O)c1ccc(NC(=O)C(C)(CCl)SC)cc1 (centres undefined)	inactive: 13.1%
CSc1ccc(Nc2c([N+](=O)[O-])cc([N+](=O)[O-])cc2[N+](=O)[O-])cc1	inactive: -37.4%
O=C(OC1CN2CCC1CC2)c1cccc([N+](=O)[O-])c1 (centres undefined)	inactive: -16%
CC1CCNP(=O)(N(CCCl)CCCl)O1 (centres undefined)	inactive: -4.59%
CCOC(=O)Nc1ccc([As](=O)(O)O)c(O)c1	inactive: 9.35%
O=C(O)C(O)c1ccc(N(CCCl)CCCl)cc1 (centres undefined)	inactive: -4.86%
Cc1cc(SC(NC(=O)c2ccccc2)C(Cl)(Cl)Cl)nc(C(C)C)n1 (centres undefined)	inactive: -1.2%
CCCCOc1ccc(C(=O)NCC2(N3CCCCC3)CCCCC2)cc1OC	inactive: -8.96%
COP(=O)(OC)N1CC1c1ccccc1 (centres undefined)	inactive: -1.37%
CCOC(=O)Nc1cccc([As](=O)(O)O)c1	inactive: -24.5%
O=[N+]([O-])c1ccc(Nc2ccc(Oc3ccc([N+](=O)[O-])cc3[N+](=O)[O-])cc2)c([N+](=O)[O-])c1	inactive: 12.4%
